Data from patent publication US7153979B2, “Triterpene derivatives and remedies for liver diseases” (Meiji Seika Kaisha, Ltd., priority 1996, dated 2006).

System: Hep G2 cells

Row | Substance | hepatocytotoxicity inhibitory activity
1 | 21β-Methoxyolean-12-ene-3β,22β,24(4β)-triol [Compound 33] | not less than 5%
2 | 21,22-Dioxolean-12-ene-3β,24(4β)-diol [Compound 36] | not less than 5%
3 | Olean-12-ene-3β,21α,24(4β)-triol [Compound 49] | not less than 5%
4 | Olean-12-ene-3β,21β,24(4β)-triol [Compound 46] | not less than 5%
5 | N-n-Butyl-3β,22β-dihydroxyolean-12-en-24(4β)-oic amide [Compound 17] | not less than 5%
6 | 21β-Acetoxyolean-12-ene-3β,22β,24(4β)triol [Compound 27] | not less than 5%
7 | 22β-Benzyloxyacetyloxyolean-12-ene-3β,24(4β)-diol [Compound 10] | not less than 5%
8 | 3β,24(4β)-Diacetoxyolean-12-ene-21β,22β-diol [Compound 20] | not less than 5%
9 | 22β-Anilinocarbonyloxyolean-12-ene-3β,24(4β)-diol [Compound 73] | not less than 5%
10 | 21-Oxolean-12-en-3β,24(4β)-diol [Compound 66] | not less than 5%
11 | 22β-Methoxy-12,13-epoxyoleanane-3β,24(4β)-diol [Compound 6] | not less than 5%
12 | 22β-Methoxyolean-12-ene-3β,21β,24(4β)-triol [Compound 32] | not less than 5%
13 | 3β,24(4β)-Dimethoxyolean-12-ene-21β,22β-diol [Compound 22] | not less than 5%
14 | 12α,13α-Epoxyoleanane-3β,22β,24(4β)-triol [Compound 2] | not less than 5%
15 | 21β,22β-Diacetoxyolean-12-ene-3β,24(4β)-diol [Compound 26] | not less than 5%
16 | 22-Oxolean-12-ene-3β,21β,24(4β)-triol [Compound 37] | not less than 5%
